In patent publication US10577395B2 (priority 2014, dated 2020):

Tested on: vancomycin-sensitive Staphylococcus aureus (VSSA strain ATCC 25923)
Assay: Antimicrobial assay, MIC, vancomycin-sensitive S. aureus
Type: cell-based
Method: Assays were carried out following the methods of Clinical and Laboratory Standards Institute; Methods for Dilution Antimicrobial Susceptibility Tests for Bacteria That Grow Aerobically; Approved Standard, […].; CLSI document M07-A8; Clinical and Laboratory Standards Institute: Wayne, Pa., 2009.
This diluted bacterial stock solution was then inoculated into a well of a V-shaped 96-well glass coated microtiter plate, supplemented with serial diluted aliquots of the antibiotic solution DMSO (4 μL), to achieve a total assay volume of 0.1 mL. The plate was then incubated at 37° C. for 18 hours, after which minimal inhibitory concentrations (MICs) were determined by monitoring the cell growth (observed as a pellet) in the wells. The lowest concentration of antibiotic (in μg/mL) capable of eliminating the cell growth in the wells is reported as the MIC.

## CBP-[Ψ[CH2NH]Tpg^4]vancomycin [Compound 17]
  MIC, sensitive S. aureus: 0.5 µg/mL
10%
  MIC, sensitive S. aureus, serum concentration 10%: 0.5 µg/mL
25%
  MIC, sensitive S. aureus, serum concentration 25%: 1 µg/mL
100%
  MIC, sensitive S. aureus, serum concentration 100%: 2 µg/mL
